This note sets out measurements from PubChem BioAssay AID2554 (Johns Hopkins Ion Channel Center, 2010).

The structures appear in SMILES notation. The list shows a part of the results, in another mix than the full data. Activity calls are given as the source filed them.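 How the source made its calls: active means primary screen hit whose fluorescence ratio, in both repeats, exceeds the weak agonist control mean by 3 SD; inactive means the rest.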

This experiment deals with TRPC4 (transient receptor potential cation channel C4 beta), mouse. Put plainly: potentiation of DAMGO EC20 TRPC4 response – cell-based, second round, Fluo-4, HEK293 TRPC4beta/mu-opioid, 1 µM, confirmation (AID 2554). To be noted: DAMGO EC20, Fluo-4 calcium flux, at 1 µM; active compounds read high. In general terms: Calcium assays in cells follow changes in intracellular calcium, usually with a dye or a luminescent sensor.
As to `CCN(CC)CCCOC(=O)C(O)(c1ccccc1)c1ccccc1`, the potentiation is active: 18%.

Regarding `CN(C)C1(CNC(=O)c2ccc(Cl)c(S(N)(=O)=O)c2)CCCCC1`, the potentiation entry is “inactive”.

For `CN(C)CCOC(=O)C(O)(c1ccccc1)C1CCCC1` (stereo not drawn), the potentiation result is “inactive”.
